Assay: Stability of tocopheryl phosphate arginine complex in a beverage (pH, turbidity, degradation)
Format: physicochemical
Protocol: In this example, the stability of the tocopheryl phosphate arginine complex (TP) in a beverage was investigated.
Tocopheryl phosphate arginine complex (equivalent α-tocopherol content of 50 mg/500 ml) was added to commercially available Musashi drinks (Musashi, Australia) a blue variety and an orange variety.
A 2% (w/v) tocopheryl phosphate arginine complex stock solution was prepared in water and filter-sterilised using a Millipore Millex-GP 25 mm, diameter 0.22 μm filter and sterile hypodermic syringe. Four ml was added to each 500 ml bottle using sterile conditions. Three treatment groups were used for each drink: 4° C., 37° C. and room temperature (RT). The drinks were monitored for bacterial growth and contamination on a weekly basis, both visually, and by plating a sample onto LB agar plates, which were grown for 48 hours at 37° C.

tocopheryl phosphate arginine complex
pH (blue Musashi drink with TP (50 mg α-tocopherol equivalent/500 ml), 4° C.): 4.34
pH (blue Musashi drink with TP, 37° C.): 4.31
pH (blue Musashi drink with TP, RT): 4.16
pH (orange Musashi drink with TP, 4° C.): 3.42
pH (orange Musashi drink with TP, 37° C.): 3.29
pH (orange Musashi drink with TP, RT): 3.28
